Apparent affinities of Ab-14 variants for a coronavirus HR2 peptide

All variants were tested on one target, the spike HR2 peptide PDVDLGDISGINAS (SARS-CoV-2).

Ab-14 is the parent antibody, in scFv form: VH, then a (GGGGS)3 linker, then VL. The light chain is unchanged in all variants.
VH: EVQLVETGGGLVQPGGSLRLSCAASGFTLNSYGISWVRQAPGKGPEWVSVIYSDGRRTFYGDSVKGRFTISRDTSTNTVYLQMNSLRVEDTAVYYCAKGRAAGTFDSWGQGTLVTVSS
VL: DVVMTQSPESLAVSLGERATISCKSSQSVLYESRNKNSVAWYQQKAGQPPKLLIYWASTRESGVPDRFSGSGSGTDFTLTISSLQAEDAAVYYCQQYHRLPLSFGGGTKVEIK

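The parent was found by panning a naive human phage display library on the peptide. Variants in AAYL49 differ from the parent at up to three CDR positions; double and triple changes were sampled at random. AlphaSeq pools MATa yeast showing the antibodies with MATalpha yeast showing the peptide. After mating in shaken culture at 30 °C for 16 h, diploids were selected and their barcode pairs sequenced. Scores were corrected for input abundance and mapped to Kd with protein pairs of known affinity run in the same pool. The assay was run in three technical replicates.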

Substitutions are numbered in sequence along the VH above, starting at 1 (not Kabat).
Every variant below is changed at D54 of the VH (sequential numbering).
The Kd shown is the geometric mean over detected replicates; a lower Kd is a better binder.
Where no diploid with the target was found in any replicate, the entry reads "nd": below detection, most likely a poor binder, though not proof of it.
Parent in this assay: reference entry 4.4 nM, copy in this library 13 µM (one replicate of three).

With G33S/D54R/T104K the result was nd (0 of 3 replicates; controls 0 of 9). For I51K/D54T/D106Q, the assay gave nd (0 of 3 replicates; controls 1 of 9). With Y32E/D54M/F59S the result was 36 µM (1 of 3 replicates; controls 2 of 9). Variant D54A/S63D/A101F gave nd (0 of 3 replicates; controls 0 of 9). Variant D54E/G103S/F105S gave nd (0 of 3 replicates; controls 0 of 9). For L29P/D54Q/T104C, the assay gave 6.0 µM (1 of 3 replicates; controls 2 of 9). With G26S/D54K/K65Q the result was nd (0 of 3 replicates; controls 0 of 9). Variant V50H/D54K/T104K showed nd (0 of 3 replicates; controls 0 of 9).

With S53T/D54K/R57D the result was 2.6 µM (1 of 3 replicates; controls 2 of 9). With G33K/D54G/G61P the result was nd (0 of 3 replicates; controls 1 of 9). Variant D54N/A102R/S107D gave nd (0 of 3 replicates; controls 0 of 9). Variant Y52I/D54W/S63E showed nd (0 of 3 replicates; controls 2 of 9). Variant D54W showed 9.1 µM (1 of 3 replicates; controls 1 of 9). With D54T/R56D the result was nd (0 of 3 replicates; controls 0 of 9). With D54C/A101E/F105H the result was nd (0 of 3 replicates; controls 0 of 9). Variant D54G/D62K/S63W gave nd (0 of 3 replicates; controls 2 of 9).

For T28A/D54Q/T104W, the assay gave 32 µM (2 of 3 replicates; controls 5 of 9). For Y32D/I34P/D54F, the assay gave nd (0 of 3 replicates; controls 1 of 9). Variant G26M/D54R/S63W gave nd (0 of 3 replicates; controls 0 of 9). Variant S53W/D54P/R57D showed nd (0 of 3 replicates; controls 2 of 9). For D54E/G103M/S107D, the assay gave nd (0 of 3 replicates; controls 0 of 9). For N30G/V50L/D54I, the assay gave 9.1 µM (2 of 3 replicates; controls 2 of 9). Variant G26P/D54V/G61Q showed nd (0 of 3 replicates; controls 0 of 9). Variant S53Q/D54M/A101S showed nd (0 of 3 replicates; controls 0 of 9).

Variant G26L/D54F/F59K gave 11 µM (1 of 3 replicates; controls 1 of 9). Variant D54L/A102G/F105W gave nd (0 of 3 replicates; controls 2 of 9). Variant T28M/L29F/D54P showed nd (0 of 3 replicates; controls 0 of 9). Variant L29I/Y52F/D54M gave nd (0 of 3 replicates; controls 1 of 9). For I34Q/D54T/R57M, the assay gave 2.5 µM (1 of 3 replicates; controls 1 of 9). For Y32D/D54W/D106H, the assay gave nd (0 of 3 replicates; controls 0 of 9). For V50E/D54I/D106I, the assay gave 13 µM (1 of 3 replicates; controls 3 of 9). Variant Y32V/D54G/A101F showed 2.8 µM (1 of 3 replicates; controls 1 of 9).

Variant D54K/G55Q gave nd (0 of 3 replicates; controls 0 of 9). Variant D54H/T104Q gave nd (0 of 3 replicates; controls 0 of 9). With D54A/F59G/G61Q the result was 13 µM (1 of 3 replicates; controls 3 of 9). Variant D54S/R57A gave 28 µM (2 of 3 replicates; controls 3 of 9). For T28L/D54I/R57T, the assay gave 6.2 µM (1 of 3 replicates; controls 1 of 9). Variant G26E/I51M/D54P showed 1.6 µM (1 of 3 replicates; controls 0 of 9). For D54R/F59K, the assay gave nd (0 of 3 replicates; controls 1 of 9). For D54W/T58N, the assay gave 100 µM (2 of 3 replicates; controls 2 of 9).

Variant Y52Q/S53P/D54W gave nd (0 of 3 replicates; controls 1 of 9). Variant F27K/D54C/K65Y gave nd (0 of 3 replicates; controls 0 of 9). Variant D54V showed 17 µM (2 of 3 replicates; controls 1 of 9). Variant D54T/R57I/D106T gave 2.8 µM (1 of 3 replicates; controls 1 of 9). With D54M/G55S/D106W the result was nd (0 of 3 replicates; controls 0 of 9). For S53F/D54S/D106H, the assay gave 14 µM (2 of 3 replicates; controls 1 of 9). Variant N30P/Y32R/D54V showed 23 µM (2 of 3 replicates; controls 0 of 9).

For reference, 7 entries of the list once more:

changes,Kd,seen in,signal with controls
D54H/T104Q,nd,0/3,0/9
F27K/D54C/K65Y,nd,0/3,0/9
I34Q/D54T/R57M,2.5 µM,1/3,1/9
D54W,9.1 µM,1/3,1/9
D54C/A101E/F105H,nd,0/3,0/9
G26L/D54F/F59K,11 µM,1/3,1/9
D54T/R57I/D106T,2.8 µM,1/3,1/9

Background: pairings of library AAYL49 with three empty control strains gave a value in 15% of cases (median 11 µM, 5th percentile 680 nM). Values in that range, when seen in few replicates, are hard to tell from nonspecific mating. Also given: how often the same scFv was detected with the empty control strains.

Reference: Engelhart et al. 2022, doi:10.1038/s41597-022-01779-4. File: FLAb, binding data.